The text below walks through data of patent publication US20090176776A1, “SMALL MOLECULE INHIBITORS OF HIV-1 CAPSID ASSEMBLY” (UNIVERSITY OF ALABAMA AT BIRMINGHAM, priority 2005, published 2009).

This data set is described as follows: MTS score (Table 1; method not described). In kind it is cell-based.

Consider `Oc1c(Br)cc(C=NNc2nc3ccccc3s2)c(O)c1Br`, for which, where the note is “average of the MTS scores at 10, 30 and 100 μM”, the “MTS AVG 4 (No Effect)” value is on record as 1.333. Further, the “MTS 10 μM” value (score at nominal 10 μM, 4 = No Effect) stood at 1. Under “score at nominal 30 μM, 4 = No Effect”, the “MTS 30 μM” value was found to be 2. For the setting “score at nominal 100 μM, 4 = No Effect”, the “MTS 100 μM” value is 1.
